Activity change data for 64 molecules are collected here from PubChem BioAssay AID720551 (National Center for Advancing Translational Sciences (NCATS), 2013).

Sequences of proteins named here, by UniProt entry; tags and fusion partners are left off. A change or cut given only in a name is not applied to a line headed by its entry.
UniProt Q12809: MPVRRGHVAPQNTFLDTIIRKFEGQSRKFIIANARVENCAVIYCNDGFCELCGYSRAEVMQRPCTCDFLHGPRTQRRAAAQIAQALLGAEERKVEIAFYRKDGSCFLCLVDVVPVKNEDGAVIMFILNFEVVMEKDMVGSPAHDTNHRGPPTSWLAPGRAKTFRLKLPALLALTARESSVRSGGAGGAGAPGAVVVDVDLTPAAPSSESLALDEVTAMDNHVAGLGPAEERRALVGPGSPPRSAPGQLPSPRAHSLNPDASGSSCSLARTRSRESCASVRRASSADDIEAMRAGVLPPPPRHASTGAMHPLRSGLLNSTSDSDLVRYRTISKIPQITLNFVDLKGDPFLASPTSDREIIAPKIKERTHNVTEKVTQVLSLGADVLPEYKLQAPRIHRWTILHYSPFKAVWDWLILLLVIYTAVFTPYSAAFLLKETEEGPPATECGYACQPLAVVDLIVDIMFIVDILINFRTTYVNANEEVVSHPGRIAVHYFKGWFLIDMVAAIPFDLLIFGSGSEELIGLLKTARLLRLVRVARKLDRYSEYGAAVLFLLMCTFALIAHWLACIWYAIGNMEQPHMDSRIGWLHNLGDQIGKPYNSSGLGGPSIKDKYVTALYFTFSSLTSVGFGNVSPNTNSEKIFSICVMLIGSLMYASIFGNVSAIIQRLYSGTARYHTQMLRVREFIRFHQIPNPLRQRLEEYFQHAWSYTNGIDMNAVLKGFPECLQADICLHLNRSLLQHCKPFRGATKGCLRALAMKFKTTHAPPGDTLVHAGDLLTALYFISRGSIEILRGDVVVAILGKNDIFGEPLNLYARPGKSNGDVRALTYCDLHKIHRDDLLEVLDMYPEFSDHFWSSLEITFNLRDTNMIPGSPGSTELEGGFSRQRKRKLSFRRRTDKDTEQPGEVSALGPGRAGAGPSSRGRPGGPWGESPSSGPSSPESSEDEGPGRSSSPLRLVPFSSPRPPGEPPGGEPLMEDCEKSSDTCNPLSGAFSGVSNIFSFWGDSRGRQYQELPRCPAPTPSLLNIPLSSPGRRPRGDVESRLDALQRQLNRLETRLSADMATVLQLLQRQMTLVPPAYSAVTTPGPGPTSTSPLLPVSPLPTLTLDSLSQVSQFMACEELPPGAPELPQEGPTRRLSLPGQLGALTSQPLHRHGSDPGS

Only a part is listed here, and it is no random draw. The source made the active and inactive calls.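 The calls were made as follows: active = maximum activity change below -70%; inconclusive = maximum activity change between -70% and -50%; inactive = maximum activity change above -50%.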
% is scaled to controls: 0 for no effect and ±100 for the full control effect.

In this assay the target is Voltage-gated inwardly rectifying potassium channel KCNH2 (Homo sapiens) (UniProt Q12809). As to the kind of experiment: qHTS for Inhibitors of KCHN2 3.1: Wildtype qHTS. The following applies: U2OS, BacMam KCNH2, thallium flux FluxOr; at 1.84 µM, stronger effect = lower value. An excerpt:
Many antipsychotic drugs that inhibit the neurotransmitter dopamine also bind to hERG1 channel which might help explain their antipsychotic activity but also produces cardiac side effects. The discovery of the novel KCNH2 3.1 isoform offers a potential new target for the development of antipsychotic drugs without cardiac side effects. This proposal will use a high throughput thallium flux assay developed for KCNH2 to screen compounds that modulate the activity of KCNH2 3.1. The wild type KCNH2 channel will also be screened in parallel to help define the selective modulators of this KCNH2 3.1 potassium channel. The resulting compounds will be validated in electrophysiology experiments. The availability of animal models will allow future testing in vivo for effects on memory and other aspects of animal physiology linked with psychosis. NIH Chemical Genomics Center [NCGC] NIH Molecular Libraries Probe Centers Network [MLPCN] MLPCN Grant: MH096539 Assay Submitter (PI): James Barrow, Johns Hopkins University, Lieber Institute for Brain Development
U2OS cells were resuspended in cell media containing 10% fetal calf serum (FCS) at a concentration of 2 million cells / mL. The solution was treated with the Wild-type virus at 2.03 x 10^8 / mL and allowed to incubate at room temperature in the dark. After 4 hours of incubation, DMEM + 10% fetal bovine serum (FBS) was added to the cell solution. Three microliter was then dispensed into a 1536 tissue culture treated black assay plates which were incubated overnight at 37 C. Two microliter of loading buffer (HBSS + HEPES + Red40 dye quencher + FluxOr dye) was added and the assay plates were incubated for 45 min at room temperature in the dark. […] A stimulation buffer was added to the plate and the second kinetic read (2 min) was obtained. The rate constant was calculated from the kinetic reads and normalized to the positive and negative DMSO controls.
On the technique in general: Quantitative high-throughput screening tests each substance at several concentrations.
On to `Cc1ccc(NP(=O)(Oc2cccc(C)c2)Oc2cccc(C)c2)nc1`, for which the activity change was inactive: 2.49%. In the case of `O=P1(N(CCCl)CCCl)OCCC2CCCCN21` (centres undefined), the activity change is inactive: 0.941%. For `COC(=O)c1cc2c(s1)N=C(c1ccccc1)N(C)P2(=O)N1CCOCC1` (centres undefined), the activity change was inactive: -2.52%. In the case of `CC(=O)NC(SC(=S)N(CC(C)C)CC(C)C)C(Cl)(Cl)Cl` (centres undefined), the activity change is inactive: 6.25%.

On to `Cc1ccc(OP(=O)(Nc2ccccn2)Oc2ccc(C)cc2)cc1`, for which the activity change is inactive: -19.6%.

With `O=C(OC1CN2CCC1CC2)c1ccccc1` (centres undefined), the activity change is inactive: -0.79%.

In the case of `CCC(=O)N1C2C3N(C(=O)CC)C1C1N(C(=O)CC)C(C(N1C(=O)CC)N3C(=O)CC)N2C(=O)CC`, the activity change was inactive: 3.9%.

Consider `Cc1ccccc1OP(=O)(Nc1ccccn1)Oc1ccccc1C`, for which the activity change is inactive: 3.5%. For the molecule `CC(NC(=O)COC(=O)C(O)(c1ccccc1)c1ccccc1)c1ccccc1` (centres undefined), the activity change was inactive: -18.1%. For `CN(C)C(=O)Oc1noc2ccccc12`, the activity change was inactive: 13.7%. For `O=c1c2cc([N+](=O)[O-])ccc2[nH]c2c([N+](=O)[O-])cc([N+](=O)[O-])cc12`, the activity change was inactive: 6.18%. `O=P1(Nc2nc3ccc(Cl)cc3s2)COc2ccccc2O1` (centres undefined): the activity change was inactive: -17.8%. Regarding `CCOc1ccc(C2=NCC(CBr)S2)cc1` (centres undefined), the activity change is inactive: -4.17%. Consider `CCc1cc(O)c([N+](=O)[O-])c(C)c1[N+](=O)[O-]`, for which the activity change is inactive: -3.63%. For `CC(C)(C)C(=O)NC(Sc1ccccc1)C(Cl)(Cl)Cl` (centres undefined), the activity change is inactive: -18.8%. In the case of `N#C/C(=C\c1ccc(N(CCBr)CCBr)cc1)C(N)=O`, the activity change is inactive: -3.45%. In the case of `CC(=O)c1ccc(N2CC2c2ccncc2)cc1` (centres undefined) it was inactive: -4.06%; in that of `COC(=O)C1(C)COP(=O)(NCc2ccccc2)OC1` (centres undefined), inactive: 12.1%; in that of `Cc1ccccc1CN(C)C(=O)COC(=O)C(O)(c1ccccc1)c1ccccc1`, inactive: 10.1%.

On to `C[C@@H]1C=CCP(=O)(Oc2ccccc2)O1` (some centres undefined), for which the activity change is inactive: -4.3%. In the case of `C[C@H]1OP(=O)(Oc2ccccc2)C[C@@H]2O[C@@H]21` (some centres undefined) it was inactive: 0.568%; in that of `CC(=O)Nc1ccc([As](=O)(O)O)c(O)c1`, inactive: -2.18%; in that of `CC(=O)Nc1ccc(Oc2c([N+](=O)[O-])cc([N+](=O)[O-])cc2[N+](=O)[O-])cc1`, inactive: -6.37%.

As for `CN(C(=O)Cc1ccc(Cl)c(Cl)c1)[C@H]1CCCC[C@H]1N1CCCC1`, the activity change is inactive: 25%. On to `Cc1ccc(N/C(=N/P(=O)(N2CCOCC2)N2CCOCC2)N2CCOCC2)cc1`, for which the activity change is inactive: -4.91%. Consider `COc1ccccc1OP(=O)(Nc1ccc(C)cn1)Oc1ccccc1OC`, for which the activity change was inactive: 0.101%. `Cc1ccc(OP(=O)(Nc2nccs2)Oc2ccc(C)cc2)cc1`: the activity change is inactive: 4.73%.

As for `Clc1ccc(Cl)c(NC2=NCC(CBr)S2)c1` (centres undefined), the activity change was inactive: 1.1%. `CN1CCCC(OC(=O)C(c2ccccc2)c2ccccc2)C1` (centres undefined): the activity change is inactive: 29.9%. Turning to `CC(C)CC(=O)NC(Sc1ccc(Cl)cc1)C(Cl)(Cl)Cl` (centres undefined), the activity change was inactive: 9.41%. In the case of `Nc1cc(N)c2nonc2c1[N+](=O)[O-]` it was inactive: 1.32%; in that of `Oc1ccccc1CNc1ccccn1`, inactive: 1.98%. Turning to `O=C(NC(Sc1ccncn1)C(Cl)(Cl)Cl)c1ccccc1` (centres undefined), the activity change is inactive: 20.8%. Consider `O=C(O)c1ccccc1[As](=O)(O)O`, for which the activity change was inactive: -9.11%. Consider `CC(=O)Nc1ccc([As](=O)(O)O)cc1`, for which the activity change is inactive: -6.04%. Consider `CCCC1OP(N)(=O)OCC1CC` (centres undefined), for which the activity change was inactive: -2.64%. As for `CN(C)P(=O)(N(C)C)n1c(Nc2ccccc2)nnc1-c1ccccc1`, the activity change is active: -143%.

As to `O=P(Nc1nc2ccc(Cl)cc2s1)(c1ccccc1)c1ccccc1`, the activity change was inactive: -1.57%.

As for `CCOP(=O)(Nc1ccccc1)OCC`, the activity change is inactive: 6.04%. With `Cc1cc(SC(NC(=O)c2ccc(F)cc2)C(Cl)(Cl)Cl)ncn1` (centres undefined) the figure was inactive: 2.82%. In the case of `Cc1ccc(NP(=O)(Oc2ccccc2F)Oc2ccccc2F)nc1` it was inactive: -6.97%.

For the molecule `CN(C(=O)Cc1ccc(Cl)c(Cl)c1)[C@H]1CCCC[C@@H]1N1CCCC1`, the activity change is inactive: 60%. `CCN(N=Nc1nonc1N)c1nonc1N`: the activity change was inactive: 1.63%. Turning to `Nc1cccc2ccc([As](=O)(O)O)cc12`, the activity change is inactive: 10.9%. For `O=P1(N(CCCl)CCCl)OCCCS1` (centres undefined), the activity change was inactive: -0.18%. `O=C(Nc1cc([As](=O)(O)O)ccc1O)c1ccccc1`: the activity change was inactive: -5.24%. For `CC(C)(C)C(=O)NC(Sc1ccncn1)C(Cl)(Cl)Cl` (centres undefined), the activity change is inactive: -5.89%. Consider `O=[N+]([O-])c1cccc(NC2=NCC(CBr)S2)c1` (centres undefined), for which the activity change is inactive: 0.752%. With `COC(=O)C1(C)COP(=O)(Nc2ccccc2)OC1` (centres undefined) the figure was inactive: 16.6%; with `O=C(O)CNc1ccc([As](=O)(O)O)cc1`, inactive: 1.22%; with `COc1ccc(C2=NCC(CBr)S2)cc1` (centres undefined), inactive: 9.26%. As to `O=[N+]([O-])c1cccc2n[nH]nc12`, the activity change is inactive: 15.6%. In the case of `CC(=O)N1C2C3N(C(C)=O)C1C1N(C(C)=O)C(C(N1C(C)=O)N3C(C)=O)N2C(C)=O`, the activity change is inactive: 4.17%. Consider `Cc1ccc(NP(=O)(Oc2ccccc2)Oc2ccccc2)nc1`, for which the activity change is inactive: -1.91%. `CCc1nc2c(n1)c1c(non1O)c1c2no[n+]1[O-]`: the activity change was inactive: -2.15%. In the case of `O=[N+]([O-])c1cc([N+](=O)[O-])c(CCNc2ccccc2)c([N+](=O)[O-])c1` it was inactive: -8.37%; in that of `Nc1ccc([As](=O)(O)c2ccc(N)cc2)cc1`, inactive: -3.19%; in that of `C[N+]1=C2C=CC=CC=C2SC12C([N+](=O)[O-])=CC([N+](=O)[O-])=C[C-]2[N+](=O)[O-]` (centres undefined), inactive: -22.7%. For `CCN(/C(=N/P(=O)(N1CCOCC1)N1CCOCC1)N1CCOCC1)c1ccc(OC)cc1`, the activity change is inactive: -7.15%.

On to `CC(C)=N/N=C(\N)N[N+](=O)[O-]`, for which the activity change was inactive: -5.77%. In the case of `CC(C)c1nc(Nc2ccccc2)n(P(=O)(N(C)C)N(C)C)n1`, the activity change was inactive: -4.86%.

Take `CN(C)C(=O)OCCc1n(C)cc[n+]1C`: the activity change is inactive: -6.48%. Take `c1cc(-c2nn[nH]n2)ccc1-c1nn[nH]n1`: the activity change is inactive: -4.56%. In the case of `CC1CCN(C(=O)Oc2c(Cl)cc(Cl)c3cccnc23)CC1` it was inactive: 0.894%.
